# Reference: PubChem BioAssay AID464 (The Scripps Research Institute Molecular Screening Center, 2006)
# Tested on: Jurkat E6.1 viability, ATP luminescence, 48 h
# Assay: viability loss in Jurkat T cells – cell-based, ATP luminescence, 48 h, 60K MLSMR, cytotoxicity control, dose response (AID 464)
structure (smiles),measurement,value
CCc1nc2c(n1)c1c(non1O)c1c2no[n+]1[O-],CC50,3.21 µM
